Literature values, collected in patent publication US20070254903A1, “Novel Spiroindoline or Spiroisoquinoline Compounds, Methods of Use and Compositions Thereof” (ARENA PHARMACEUTICALS, INC., priority 2003, published 2007).

Sequences of proteins named here, by UniProt entry; tags and fusion partners are left off.
UniProt Q9Y5X5, whole entry, species assumed: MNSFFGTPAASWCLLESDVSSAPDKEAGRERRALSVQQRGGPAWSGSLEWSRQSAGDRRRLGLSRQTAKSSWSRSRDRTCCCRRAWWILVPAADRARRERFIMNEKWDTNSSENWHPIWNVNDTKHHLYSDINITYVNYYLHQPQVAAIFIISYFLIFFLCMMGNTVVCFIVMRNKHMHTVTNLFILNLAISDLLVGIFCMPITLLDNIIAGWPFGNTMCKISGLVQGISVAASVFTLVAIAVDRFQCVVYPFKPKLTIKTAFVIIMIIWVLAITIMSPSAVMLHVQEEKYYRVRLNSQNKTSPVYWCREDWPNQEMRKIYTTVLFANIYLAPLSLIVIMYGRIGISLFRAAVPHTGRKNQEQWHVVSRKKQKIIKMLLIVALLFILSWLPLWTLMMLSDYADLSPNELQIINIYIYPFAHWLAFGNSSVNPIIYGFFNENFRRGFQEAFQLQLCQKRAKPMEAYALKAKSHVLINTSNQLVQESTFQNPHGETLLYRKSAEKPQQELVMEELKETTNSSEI
UniProt Q9GZQ6, whole entry, species assumed: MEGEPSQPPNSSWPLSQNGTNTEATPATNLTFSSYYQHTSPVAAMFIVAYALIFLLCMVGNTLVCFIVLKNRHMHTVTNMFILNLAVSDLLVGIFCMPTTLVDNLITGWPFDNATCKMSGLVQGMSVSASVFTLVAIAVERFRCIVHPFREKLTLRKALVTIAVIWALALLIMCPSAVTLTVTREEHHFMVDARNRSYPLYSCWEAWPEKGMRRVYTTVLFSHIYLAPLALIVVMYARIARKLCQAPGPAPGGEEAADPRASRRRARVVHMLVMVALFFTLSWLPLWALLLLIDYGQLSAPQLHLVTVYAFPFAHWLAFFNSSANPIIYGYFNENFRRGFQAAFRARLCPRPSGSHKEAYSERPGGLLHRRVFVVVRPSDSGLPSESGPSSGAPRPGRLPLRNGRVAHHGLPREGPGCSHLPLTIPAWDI

Assays:
NPFF2 = NPFF2 (Homo sapiens, UniProt Q9Y5X5); details: Bonini et al. 2000; Elshourbagy et al. 2000; cited from earlier work
NPFF1 = NPFF1 (Homo sapiens, UniProt Q9GZQ6); details: Bonini et al. 2000; Elshourbagy et al. 2000; cited from earlier work

NPFF: "a peptide called NPFF" that binds the Mas receptor "fairly weakly" and with high affinity to NPFF1 and NPFF2
Kd (NPFF2): 0.3 nM
Kd (NPFF1): 1.3 nM
